Compound activity as filed in PubChem.
HCMV UL50-53 inh: inhibitors of HCMV UL50-UL53 interaction, biochemical, HTRF; 0.15% of 190,000 active; inhibition, % (concentration not given with the values); AID 1918969, 2023; HCMV UL50-UL53 nuclear egress complex (human cytomegalovirus); normalized percent inhibition; in the data active = inhibition above about 27%, passing the limit was not always enough
GIV Gai3 FP: inhibitors of GIV GBA-motif binding to rat Galpha-i3; percent of control (FP), % (concentration not given with the values); AID 1224905; Galpha-i3/FITC-GIV peptide fluorescence polarization, 90 min; stronger effect = lower value; scaled: aluminum fluoride 0%, vehicle 100%; 210,000 compounds, 0.42% hits; P08753;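 active means replicate mean at 85% of control or lower, very high polarization wells dropped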;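 further: wells of about 15 µL received 100 nL stock; the first replicate is given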
GIV Gai FP conf: inhibitors of GIV peptide binding to Galpha-i3, confirmation, biochemical, fluorescence polarization, FITC-GIV peptide, rat Galphai3 | 38% of 580 active | shares compounds with GIV Gai3 FP | stronger effect = lower value | AID 1259350, 2017 | fluorescence polarization, mP at 100 µM;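 active = inhibition score of 15 or more, meaning 100 minus mean polarization as percent of control over three replicates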
GIV Gai AS conf: inhibitors of GIV binding to Galpha-i3, confirmation, orthogonal assay for GIV-Galpha-i inhibitor project, biochemical, AlphaScreen, His-GIV, GST-Galphai3 | shares compounds with GIV Gai3 FP | AID 1259351, 2017 | 39% of 580 active | AlphaScreen counts at 100 µM | purified proteins, 90 min; stronger effect = lower value;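 active = inhibition score at or above a set limit, where the score is 100 minus the three-replicate mean percent of control signal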
A number is an active result; - = inactive; . = no result. An excerpt weighted towards active compounds, which were near 0.43% of everything screened.

SMILES	HCMV UL50-53 inh	GIV Gai3 FP	others
O=C1NC(=O)C(=Cc2cn(Cc3ccccc3)c3ccccc23)C(=O)N1	.	-5.9
O=Cc1cn(Cc2ccc(Cl)cc2)c2ccccc12	-	.
Cc1ccc(Cn2cccc(C(=O)Nc3nccs3)c2=O)cc1	.	-
COc1cc2c(cc1O)CC1c3c(c(OC)c(OC)c(OC)c3-2)CCN1C (configuration not stated)	-	.
O=[N+]([O-])c1ccc(C2Nc3c(Cl)cc(Cl)cc3C3C(Cl)C(Sc4ccccc4[N+](=O)[O-])CC23)cc1 (configuration not stated)	.	-
Cn1c(=O)[nH]c2nncnc2c1=O	78.5	-
O=C(Cc1csc2nc(-c3ccc(Cl)cc3)cn12)N1CCN(Cc2ccccc2)CC1	-	-
CC(C)(C)c1ccc(OCCOc2ccccc2C=C2C(=O)NC(=O)NC2=O)cc1	64.6	-
O=C1NC(=O)C(=Cc2ccccc2OCCOc2ccc([N+](=O)[O-])cc2)C(=O)N1	-	-
O=C(CN1C(=O)CN=C(c2ccccc2)c2cc(Br)ccc21)N/N=C/c1ccccc1	.	-
Fc1ccc(-c2ccc(CNC3CN4CCC3CC4)o2)cc1 (configuration not stated)	-	-
COc1cc(C=C2C(=O)N(C)C(=O)N(C)C2=O)ccc1OS(=O)(=O)c1ccccc1	62.0	-
CN1C(=O)C(=Cc2ccccc2OS(=O)(=O)c2ccccc2)C(=O)N(C)C1=O	-	-
CCN(CC)c1ccc(C=C(C#N)C#N)cc1	-	50.9
N#CC(C#N)=Cc1ccc(O)cc1	-	.
Cn1c(CCCC(=O)O)nc2cc(N(CCCl)CCCl)ccc21	66.6	-
COCCOC(=O)C1=C(C)OC(N)=C(C(=O)OCc2ccccc2)C12C(=O)Nc1ccccc12 (configuration not stated)	.	-
CCOC(=O)C1C2NC(=S)NC1(C)Oc1ccccc12 (configuration not stated)	-	-
CCOC(=O)c1cc(CC)sc1/N=C/C1C(=O)NC(=S)NC1=O	.	-36.2
CCOC(=O)C1=C(N)Oc2n[nH]c(C(C)(C)C)c2C12C(=O)Nc1ccc(Br)cc12 (configuration not stated)	.	-
CCC(=O)N1N=C2C3CCN(CC3)[C@@H]2[C@@H]1c1ccccc1C	-	-
COCCOC(=O)C1=C(N)OC(C)=C(C(C)=O)C12C(=O)Nc1ccc(Br)cc12 (configuration not stated)	-	-
N#Cc1c(N)[n+]([O-])c2ccccc2[n+]1[O-]	-	-31.1
Cc1ccc2c(c1)C1CN(C)CCC1N2 (configuration not stated)	-	84.0
CC(=O)N1c2ccc(C)cc2C2CN(C)CCC21 (configuration not stated)	.	-
SMILES	HCMV UL50-53 inh	GIV Gai3 FP	others
C1=C(c2cccnc2)Nc2ncnn2C1c1cccs1 (configuration not stated)	-	-74.0
C=CCOC(=O)c1cc(-c2ccc(C=C3C(=O)N(C)C(=O)N(C)C3=O)o2)ccc1Cl	-	-
O=P1(N2CCOCC2)C=C(c2ccccc2)c2c(c3ccccc3c3cc(Cl)ccc23)O1 (configuration not stated)	.	-
CCC1C=CC=CCC(C)C(O)[C@@](C)(O)C(=O)C(C)[C@@H](O)C(C)C(=O)C(C)C(O)C(C)C=CC(=O)OC2C(C)[C@]3(CCC(C)C(CC(C)O)O3)OC(CC1)[C@H]2C (some centres not stated)	-	.
O=P(Cc1ccccc1NCCCl)(c1ccccc1)c1ccccc1	.	-
CC[C@@]1(O)C(=O)OCc2c1cc1n(c2=O)Cc2cc3c(O)cccc3nc2-1	-	76.6	GIV Gai FP conf=61;GIV Gai AS conf=-
CC[C@@]1(O)C(=O)OCc2c1cc1n(c2=O)Cc2cc3ccccc3nc2-1	-	-
CCCC1=C(C(=O)OCC)C2(C(=O)Nc3ccccc32)C(C(=O)OCc2ccccc2)=C(N)O1 (configuration not stated)	.	-
CCn1cc(C(=O)c2ccccc2)c2ccccc21	-	-
CCn1cc(C=C2C(=O)NC(=O)NC2=O)c2ccccc21	-	-	GIV Gai FP conf=18.6;GIV Gai AS conf=15779
O=C1NC(=S)N(c2ccc(Br)cc2)C(=O)/C1=C\c1ccc(-c2ccccc2C(=O)O)o1	-	-
CN1C(=O)/C(=C/c2ccc(I)o2)C(=O)NC1=S	-	46.4	GIV Gai FP conf=56.3;GIV Gai AS conf=812
NC(Cc1cc(O)c(O)cc1O)C(=O)O (configuration not stated)	76.3	71.0	GIV Gai FP conf=33.9;GIV Gai AS conf=2389
NCCc1cc(O)c(O)cc1O	-	.
O=C1NC(=S)N(c2cccc(Br)c2)C(=O)/C1=C/C=C/c1ccccc1	.	-
C=CCN1C(=O)NC(=O)/C(=C/c2ccco2)C1=O	.	-
O=C1NC(=O)N(Cc2ccco2)C(=O)/C1=C\c1ccco1	-	61.3	GIV Gai FP conf=46.4;GIV Gai AS conf=1412
COc1ccccc1N1C(=O)NC(=O)/C(=C\C=C\c2ccco2)C1=O	.	-
C=CCN1C(=O)/C(=C/c2ccco2)C(=O)NC1=S	-	45.8	GIV Gai FP conf=52.1;GIV Gai AS conf=936
CCCC1=C(C(=O)OCC)C2(C(=O)Nc3ccc(Cl)cc32)C(C#N)=C(N)O1 (configuration not stated)	.	-
Cc1cc(/C=C2\C(=O)NC(=S)N(c3ccc(Cl)cc3)C2=O)c(C)n1-c1cc(C(=O)O)cc(C(=O)O)c1	-	-
CC(C)OC(=O)C1=C(N)OC2=C(C(=O)CC(C)(C)C2)C12C(=O)Nc1ccccc12 (configuration not stated)	.	-
COc1cc2c(cc1OC)[C@@]13CCN4CC5=CCOC6CC(=O)N2C1C6C5CC43 (some centres not stated)	-	.
COc1cc(C(c2c(C)[nH]n(-c3ccccc3)c2=O)c2c(C)[nH]n(-c3ccccc3)c2=O)cc(OC)c1OC	.	79.0	GIV Gai FP conf=52.8;GIV Gai AS conf=19198
COc1cc(CN2CCN(C(=O)Cc3ccccc3)CC2)cc(OC)c1OC	-	-
SMILES	HCMV UL50-53 inh	GIV Gai3 FP	others
C=CCOC(=O)C1=C(C)OC(N)=C(C(=O)OCCOC)C12C(=O)Nc1ccccc12 (configuration not stated)	-	-
COC(=O)C1=C(N)OC2=C(C(=O)CCC2)C12C(=O)Nc1ccc(Br)cc12 (configuration not stated)	-	-
O=C1NC(=O)C(=Cc2ccc(-c3cc(C(=O)O)ccc3Cl)o2)C(=O)N1	-	59.4	GIV Gai FP conf=59.8;GIV Gai AS conf=4991
COc1ccc(N2C(=O)/C(=C/c3ccc(-c4cc(C(=O)O)ccc4Cl)o3)C(=O)NC2=S)cc1	-	-
COc1cc(C=C2C(=O)NC(=O)NC2=O)cc(Cl)c1OCCOc1ccccc1	-	-
CCOc1cc(C=C2C(=O)NC(=O)NC2=O)cc(Cl)c1O	-	72.2	GIV Gai FP conf=-;GIV Gai AS conf=5092
COCCOC(=O)C1=C(C)OC(N)=C(C(=O)OC(C)C)C12C(=O)Nc1ccccc12 (configuration not stated)	.	-
CCCCC/C=C\C/C=C\C/C=C\C/C=C\CCCC(=O)N[C@@H](CO)C(=O)O	-	.
CN1CC[C@]2(c3cccc(O)c3)Cc3nc4ccccc4cc3CC2C1 (some centres not stated)	-	.
CN(N=O)c1ccc(O)c(O)c1	101.6	37.0	GIV Gai FP conf=42.5;GIV Gai AS conf=3178
